Laboratory results taken from patent US20140255402A1 (priority 2013, published 2014).
Like-named read-outs stand apart in the source and are kept apart here.

Tested on: NALM/6 cells

`Nc1ccn([C@@H]2O[C@H](CO)[C@@H](O)[C@@H]2O)c(=O)n1` [Ara-C, Cytarabine] was tested, and the “Median survival time (MST)” value (experiment 1, concurrent schedule, low dose: Ara-C 100 mg/kg daily x6, Combotox 0.8 mg/kg anti-CD19-dgRTA plus 0.5 mg/kg anti-CD22-dgRTA daily x6, i.v., start day 12) was 19 days and the “Median survival time (MST)” value (experiment 2, sequential schedule, high dose: Ara-C 200 mg/kg daily x3 on days 7-9, Combotox 2.4 mg/kg anti-CD19-dgRTA plus 1.5 mg/kg anti-CD22-dgRTA on days 14, 16 and 18) was 20 days.
